Assay results published in patent US20080081781A1, “Methods and compositions for the treatment of metabolic syndrome” (priority 2004, published 2008).

Test: Pharmacokinetics of 3H-berberine in rabbits, intravenous and intravenous drip
Protocol: 0.1 ml of blood was removed at various times and radiation emissions were measured.

[1] = 5 rabbits, intravenously 25 MBq/kg
[2] = four rabbits, intravenous drip 46.25 Mbq/kg

3H-berberine showed a T1/2α [1] of 1.41 ± 0.16 h, a T1/2β [1] of 35.3 ± 1.3 h and a T1/2α [2] of 1.03 ± 0.11 h. It also gave a T1/2β [2] of 35.8 ± 2.0 h.
